# From PubChem BioAssay AID493084 (National Center for Advancing Translational Sciences (NCATS), 2011)
# Amino acid sequences for entries named in this document (tags omitted).
# UniProt P34981, whole entry: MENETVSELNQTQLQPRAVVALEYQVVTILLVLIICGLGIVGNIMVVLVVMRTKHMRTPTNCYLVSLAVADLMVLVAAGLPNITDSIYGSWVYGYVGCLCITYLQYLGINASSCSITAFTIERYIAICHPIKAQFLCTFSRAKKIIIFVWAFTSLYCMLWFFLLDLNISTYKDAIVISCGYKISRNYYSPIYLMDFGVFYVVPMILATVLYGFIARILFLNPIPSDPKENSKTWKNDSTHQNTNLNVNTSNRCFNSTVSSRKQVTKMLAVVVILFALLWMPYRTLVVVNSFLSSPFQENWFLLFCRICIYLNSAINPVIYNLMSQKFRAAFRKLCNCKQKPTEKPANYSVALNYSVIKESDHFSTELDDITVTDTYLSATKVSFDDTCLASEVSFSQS
# Where “and” joins values, the source holds several entries; their conditions need not be identical. Identical values can stand only once. The entries are a selection whose mix differs from that of the whole data set. Some of these compounds have results that are not shown, active ones among them. Calls of active or inactive are those of the source. Cut-off read from the data, not from the text of the source: active = activation above about 30%; inactive = the rest.
# Molecular target: Thyrotropin-releasing hormone receptor (Homo sapiens) (UniProt P34981)
# Assay: qHTS for Small Molecule Agonists and Allosteric Enhancers of Human TRH Receptor: Primary Screen for Agonists. Note: 0% is about no effect.
# Details: TRHR cells, calcium flux fluo-8, FDSS agonist mode; at 2 µM; hits give high values
# Source text: NIH Chemical Genomics Center [NCGC] NIH Molecular Libraries Probe Centers Network [MLPCN] MLPCN Grant: MH089816-01 Assay Submitter (PI): Marvin Gershengorn This project aims to identify small drug-like molecules that activate (agonists) the thyrotropin releasing hormone (TRH) receptor (TRHR) or enhance its TRH-stimulated activity (allosteric enhancers). TRHR, a drug-accessible cell surface receptor expressed in specific brain regions, and its ligand TRH have been implicated in several central nervous system disorders, including depression and anxiety. Small molecule TRHR agonists or allosteric enhancers that are metabolically stable and able to cross the blood-brain barrier might serve as probes to elucidate the roles of brain TRH receptors in animal models, and might be valuable as lead compounds for the development of drugs to treat patients with central nervous system disorders. Upon TRHR-Gq activation in TRHR cells, intracellular calcium is released from stores in the endoplasmic reticulum. […] This primary screen measures compound-induced activation of calcium release.
# For the HTS assay freshly prepared cells are plated at a density of 2000/well in 3 ul of complete DMEM medium containing 10% serum in 1536-well plates and cultured over night at 37 C in a humidified incubator with 5% CO2. The next day, 2 ul of a no wash calcium dye (ABD Bioquest) was added to the cells and plates were incubated at room temperature for 1 hour. For the assay, assay plates were loaded into the FDSS kinetic plate reader. A 10 cycle (1 second/cycle) baseline measurement is taken and then the FDSS online 1536 pintool delivers 23 nl of compound library (as well as TRH controls) to the plate. The plate is measured for kinetically at 1 cycle/sec for 180 seconds and is considered to be the agonist portion of the assay (eg, compounds which activate a positive calcium response during this portion are flagged as potential agonists). Following the 180 second read, 1 ul of either an EC20 (positive modulation assay) is delivered by an onboard pipette head. Measurements are taken kinetically for an additional 180 seconds. TRHR FDSS Screening Protocol 1. Reagent, 3 uL 2000 cells/well 1536 TC treated Black plate in media containing 10% FCS 2. Time, 18 hours, 33.5C 5% CO2 (cells grown at 37C) 3. Reagent, 2 uL ABD fluo-8 Ca dye 4. Time, 30 min-1.5hrs hours, Room temp (6 plates/batch) 5. Detector, EX 480/EM 530C, FDSS 10 cycles baseline (1sec/cycle) 6. Compound, 23 nL of stock solution from library 7. Detector, EX 480/EM 530C, FDSS […] (1sec/cycle) Agonist mode 8. Compound, 1 ul EC20 of TRH made up in HEPES HBSS, 10 nM final 9. Detector, EX 480/EM 530C, FDSS 100 cycles (1sec/cycle) Potentiator mode
row,SMILES,activation
1,O=C(NCC1(N2CCCCC2)CCCCC1)c1cc([N+](=O)[O-])ccc1Cl,inactive: 0.846%
2,CN1[C@@H]2CC[C@H]1CC(OC(=O)C(O)(c1ccccc1)c1ccccc1)C2 (some centres undefined),inactive: -0.217%
3,CC(C)N1C(=O)CC2(CCN(CCOC(=O)C(O)(c3ccccc3)c3ccccc3)CC2)C1=O,inactive: -0.0782%
4,COc1cc(SC)ccc1C(=O)NCC1(N(C)C)CCCCC1,inactive: 0.0998%
5,CCN(CC)CC(C)C(C)OC(=O)C(O)(c1ccccc1)c1ccccc1 (centres undefined),inactive: 0.895%
6,CN(C)C1(CNC(=O)c2cccc(Cl)c2)CCCCC1,inactive: 0.901%
7,CN(C)C1(CNC(=O)c2ccccc2F)CCCCC1,inactive: 0.447%
8,Cc1ccc(C(=O)NCC2(N3CCCCC3)CCCCC2)cc1,inactive: -0.172%
9,CN(C)C1CCCC1OC(=O)C(O)(c1ccccc1)c1ccccc1 (centres undefined),inactive: 0.188%
10,CN(C)c1ccc(C(=O)NCC2(N(C)C)CCCCC2)cc1,inactive: 0.487%
11,CN(C)C1(CNC(=O)c2ccccc2[N+](=O)[O-])CCCCC1,inactive: 0.413%
12,Cc1ccccc1C(=O)NCC1(N2CCCCC2)CCCCC1,inactive: -0.555%
13,CCCCOc1ccccc1C(=O)NCC1(N(C)C)CCCCC1,inactive: 0.739%
14,O=C(NCC1(N2CCCCC2)CCCCC1)c1cc(F)c(F)cc1Cl,inactive: -0.123%
15,C=CCN1CCN(CCOC(=O)C(O)(c2ccccc2)c2ccccc2)CC1,inactive: 0.337%
16,O=C(NCC1(N2CCCCC2)CCCCC1)c1cccc(Br)c1,inactive: 0.683%
17,Cc1cc(C(=O)NCC2(N3CCCCC3)CCCCC2)ccc1[N+](=O)[O-],inactive: 1.04%

row,SMILES,activation
1,CCN1CCCC(OC(=O)C2(O)c3ccccc3C=Cc3ccccc32)C1 (centres undefined),inactive: 0.951%
2,CCOc1cccc(C(=O)NCC2(N(C)C)CCCCC2)c1,inactive: 0.311%
3,COc1ccc(C(=O)NCC2(N(C)C)CCCCC2)cc1,inactive: -0.854%
4,CN(C)C1(CNC(=O)c2ccc(Br)cc2)CCCCC1,inactive: 0.359%
5,COc1cc(C(=O)NCC2(N(C)C)CCCCC2)c([N+](=O)[O-])cc1OC,inactive: -0.603%
6,COc1ccc(C(=O)NCC2(N(C)C)CCCCC2)cc1Cl,inactive: 1.55%
7,COc1ccc(Cl)cc1C(=O)NCC1(N(C)C)CCCCC1,inactive: 0.535%
8,COc1cccc(C(=O)NCC2(N3CCCCC3)CCCCC2)c1,inactive: 0.328%
9,O=C(NCC1(N2CCCCC2)CCCCC1)c1cccc(Cl)c1,inactive: 2.15%
10,O=C(OC1CN2CCC1CC2)C(CO)(c1ccccc1)c1ccccc1 (centres undefined),inactive: 2.07%
11,COc1cccc(C(=O)NCC2(N3CCOCC3)CCCCC2)c1,inactive: 0.311%
12,CC(C)COc1ccc(C(=O)NCC2(N(C)C)CCCCC2)cc1,inactive: 1.2%
13,COc1ccc(Br)c(C(=O)NCC2(N3CCCCC3)CCCCC2)c1,inactive: 0.416%
14,Cc1cccc(C(=O)NCC2(N(C)C)CCCCC2)c1,inactive: 1.17%
15,COc1cc(C(=O)NCC2(N(C)C)CCCCC2)cc(OC)c1OC,inactive: 0.362%
16,CN(C)c1cccc(C(=O)NCC2(N(C)C)CCCCC2)c1,inactive: -0.532%
17,CC(C)Oc1ccc(C(=O)NCC2(N(C)C)CCCCC2)cc1,inactive: 1.34% and inactive: -2.7%
